Source: PubChem BioAssay
TDP1 inh = inhibitors of human tyrosyl-DNA phosphodiesterase TDP1; 350,000 compounds, 0.28% hits; AID 485290; recombinant TDP1, AlphaScreen DNA substrate cleavage; Potency, µM (highest dose often 130 µM), inactives show top-dose activity change, negative = inhibition, hits mostly inhibitors; Q9NUW8; also: potency is read from the fitted curve at half-maximal effect; % is scaled to controls: 0 for no effect and ±100 for the full control effect; nearly all actives have a fitted effect of over 40% in size
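Here, a 5' biotin and 3' phosphotyrosine-FITC DNA oligonucleotide reports Tdp1 activity: intact substrate bridges AlphaScreen beads, while cleavage leaves a 3' phosphate and drops signal. All incubations at room temperature.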
TDP1 cell noCPT = qHTS for Inhibitors of human tyrosyl-DNA phosphodiesterase 1 (TDP1): qHTS in cells in absence of CPT; 420,000 compounds, 15% hits; Potency, µM (titrated, usually from 46.2 µM), for the others: top-dose activity change, negative = growth inhibition, usual class: inhibitors; AID 686978, 2013; DT40 Tdp1-/- hTDP1 cells, no CPT, ATP luminescence, 48 h; also: potency is read from the fitted curve at half-maximal effect; % is scaled to controls: 0 for no effect and ±100 for the full control effect; nearly all actives have a fitted effect of over 55% in size
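A cellular qHTS used chicken DT40 cells lacking endogenous Tdp1 but carrying stably transfected human TDP1. Compounds were applied without camptothecin, and cell growth kinetics were judged by ATP-dependent luminescence after ≥48 hr.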
DT40 TDP1 CPT = DT40-hTDP1 cell growth loss with CPT; 420,000 compounds, 12% hits; AID 686979; chicken DT40 Tdp1-/-;hTDP1 cells + 20 nM CPT, ATP luminescence, 48 h; Potency, µM (titrated, usually from 46.2 µM), for inactives: top-dose activity change, negative = growth inhibition, hits mostly inhibitors; also: potency is read from the fitted curve at half-maximal effect; % is scaled to controls: 0 for no effect and ±100 for the full control effect; nearly all actives have a fitted effect of over 55% in size
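Chicken DT40 Tdp1-/- cells stably complemented with human TDP1 were seeded at 400 cells/well in medium containing 20 nM camptothecin, exposed to pin-transferred compounds, and grown at 37 °C for at least 48 hr. Viability was read as ATP luminescence.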
miR-21 reporter = miR-21 reporter, rising signal; Potency, µM (titrated, usually from 38.3 µM), without a hit: at the highest dose reporter change, positive = more light; AID 2288; 340,000 tested, under 10 active; HeLa miR-21 FLuc reporter, luciferase, 48 h; active = well fitted rising curve with a large enough effect; inconclusive = small, poorly fitted or top-dose-only effect; inactive = no such curve, though single readings can be large or run the other way;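 note: % of control where 0% means no effect; miR-21 action dims this reporter so a rising signal means less miR-21 action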
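Using DMEM plus 10% FBS, HeLa miR-21-FLuc cells are incubated with test compounds (final up to about 40uM) for 48 hours; firefly luciferase signal is then imaged following reagent-mediated lysis.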
uPA generation = inhibitors of cell surface uPA generation; AID 540303; 330,000 compounds, 0.31% hits; cell surface uPA generation assay, qHTS; Potency, µM (top dose mostly 38.3 µM), for inactives: at the highest dose activity change, negative = inhibition, hits mostly inhibitors; active = well fitted inhibition curve with a large enough effect; inconclusive = small, poorly fitted or top-dose-only effect; inactive = no such curve, though single readings can be large or run the other way; tested in mouse RAW 264.7 cells; also: potency is read from the fitted curve at half-maximal effect; % is scaled to controls: 0 for no effect and ±100 for the full control effect; nearly all actives have a fitted effect of over 55% in size
* = called active by the depositor; ? = inconclusive; · = not tested or not shown; [ ] = dose if it differs, or a comment. A selection: hits, their analogues and other compounds. The true share with any hit is near 16%. Unless noted, calls follow the shape of the dose curve; as a rule, active = well fitted curve in the direction sought with a large enough effect; inconclusive = small, poorly fitted or top-dose-only effect, or another doubt; inactive = no such curve, though single readings can be large; an effect the other way counts as inactive or inconclusive.

1. O=C1C2=C(c3ccccc31)[N+](=O)[C@@H]1CCCC[C@@H]1N2[O-]
2. COc1ccc(CNC(=O)c2cc(C3CC3)nc3c2cnn3C(C)C)cc1
3. Cc1ccc(OCC(=O)NNC(=S)NC(=O)C2CCCCC2)c(C)c1
4. CC(C)c1ccc(OCC(=O)NNC(=S)NC(=O)C2CC2)cc1
5. N#Cc1ccc(OCC(=O)NNC(=S)NC(=O)C2CC2)cc1
6. CC(C)c1ccc(OCC(=O)NNC(=S)NC(=O)c2cccs2)c(Br)c1

entry no.	1	2	3	4	5	6
TDP1 inh	5%	-3%	6%	3%	2%	1%
TDP1 cell noCPT	?	?	21µM*	15µM*	21µM*	23µM*
DT40 TDP1 CPT	?	?	?	?	?	18µM*
miR-21 reporter	-31%	·	-1%	10%	·	-2%
uPA generation	2%	?	1%	-3%	5%	6%

7. Cc1ccc(OCC(=O)NNC(=S)NC(=O)C(C)(C)C)c(Br)c1
8. Cc1ccc(OCC(=O)NC(=S)Nc2ccccn2)c(Br)c1
9. CCCN(CCC)CC(=O)N1CC(=O)Nc2ccccc21
10. CC(C)Cn1c(SCC(=O)N(C)c2c(N)n(Cc3ccccc3)c(=O)[nH]c2=O)nc2ccccc21
11. Clc1ccc(Cn2ncc3c(N4CCN(c5ccccc5)CC4)ncnc32)cc1
12. Cc1ccc(Cn2ncc3c(N4CCN(c5ccccc5C)CC4)ncnc32)cc1

entry no.	7	8	9	10	11	12
TDP1 inh	11%	0%	1%	·	·	2%
TDP1 cell noCPT	18µM*	-6%	-23%	1%	23µM*	16µM*
DT40 TDP1 CPT	?	-9%	2%	5%	23µM*	23µM*
miR-21 reporter	-12%	22%	-19%	·	·	9%
uPA generation	-3%	-15%	-5%	5%	·	-3%

13. Cc1ccc(Cn2ncc3c(N4CCOCC4)ncnc32)cc1
14. c1ccc(Cn2ncc3c(N4CCCCC4)ncnc32)cc1
15. Cc1cc(C(=O)OCC(=O)NC2CC2)ccc1[N+](=O)[O-]
16. CCC1CCCCN1C(=O)CSc1nc2c(cnn2-c2ccc(C)cc2)c(=O)[nH]1 (configuration not stated)
17. O=c1c(-c2cccs2)nc2ccccc2n1C(c1ccccn1)c1nc2ccccc2[nH]1 (configuration not stated)
18. O=c1c(-c2ccccc2)nc2ccccc2n1C(c1ccccn1)c1nc2ccccc2[nH]1 (configuration not stated)

entry no.	13	14	15	16	17	18
TDP1 inh	4%	6%	0%	3%	·	·
TDP1 cell noCPT	-29%	?	-5%	-4%	15µM*	9.2µM*
DT40 TDP1 CPT	?	?	-3%	3%	?	?
miR-21 reporter	-5%	-20%	·	0%	·	·
uPA generation	-1%	4%	1%	-1%	·	·

One compound at a time, from the list above. Screens in order: TDP1 inh	TDP1 cell noCPT	DT40 TDP1 CPT	miR-21 reporter	uPA generation
CCC1CCCCN1C(=O)CSc1nc2c(cnn2-c2ccc(C)cc2)c(=O)[nH]1 (configuration not stated) as listed: 3%	-4%	3%	0%	-1%
O=c1c(-c2ccccc2)nc2ccccc2n1C(c1ccccn1)c1nc2ccccc2[nH]1 (configuration not stated) as listed: ·	9.2µM*	?	·	·
Cc1ccc(Cn2ncc3c(N4CCOCC4)ncnc32)cc1 as listed: 4%	-29%	?	-5%	-1%

Carrying on.
19. O=c1c(-c2cccnc2)nc2ccccc2n1C(c1ccccn1)c1nc2ccccc2[nH]1 (configuration not stated)
20. Cc1nc2c(C(F)(F)F)cccc2c2c1CCS2
21. CS(=O)(=O)c1ccc(Cl)c(NC(=O)COC(=O)/C=C/c2cnc3ccccc3n2)c1
22. CCNC(=O)C1(C)CCN(C(=O)c2ccc3c(c2)OCO3)C1 (configuration not stated)
23. Cc1ccc(S(=O)(=O)N2C[C@H]3[C@H]4C(=O)N(c5ccccc5)C(=O)[C@H]4CC(=O)[C@H]3[C@@H]2c2ccccc2)cc1
24. c1cc2c(cc1C1CCCCC1)c1c3n2CCN[C@H]3CCC1

entry no.	19	20	21	22	23	24
TDP1 inh	·	5%	3%	·	·	26%[56.1 µM]
TDP1 cell noCPT	-28%	-4%	18%	2%	5%	11µM*
DT40 TDP1 CPT	?	4%	-12%	19%	25%	11µM*
miR-21 reporter	·	0%	-6%	·	·	·
uPA generation	·	-7%	-8%	·	·	·

25. c1cc2c(cc1C1CCCCC1)c1c3n2CCCNC3CCC1 (configuration not stated)
26. CC(=O)Nc1ccc(OCC(=O)NCCc2ccccc2)cc1
27. CC(C)OCCCNC(=O)COCC(=O)Nc1ccc(OCCc2ccccc2)cc1
28. O=C(Nc1ccc(-n2cccn2)cc1)C1CCCCN1Cc1cccc2c1OCO2 (configuration not stated)
29. Cc1nn(-c2ccccc2)c2c1C(O)CC(C)(C)C2 (configuration not stated)
30. Cc1nc2c(c3c1[nH]c1ccccc13)C(O)CC(C)(C)C2 (configuration not stated)

entry no.	25	26	27	28	29	30
TDP1 inh	0%	8%	·	2%	·	0%
TDP1 cell noCPT	6.5µM*	9%	13µM*	4.6µM*	3%	?
DT40 TDP1 CPT	7.3µM*	18%	18µM*	6.5µM*	5%	18µM*
miR-21 reporter	?	-6%	19%	19%	-4%	20%
uPA generation	16%	-4%	-8%	?	-2%	7%

31. O=S(=O)(O)c1cc(Cl)cc(N=Nc2ccc(O)cc2O)c1O
32. Cc1cc(-c2ccc(N=Nc3c(S(=O)(=O)O)cc4cc(S(=O)(=O)O)cc(N)c4c3O)c(C)c2)ccc1N=Nc1c(S(=O)(=O)O)cc2cc(S(=O)(=O)O)cc(N)c2c1O
33. O=S(=O)(O)c1cc(O)c2c(O)c(N=Nc3cc(Cl)ccc3O)c(S(=O)(=O)O)cc2c1
34. CCOC(=O)c1cc(C(=O)NN)c(=O)[nH]c1C
35. Cc1cc(C)c(S(=O)(=O)NNC(=O)C2CCN(Cc3ccccc3)CC2)c(C)c1
36. CCOC(=O)C1CCCCN1S(=O)(=O)c1ccc2c(c1)CC(C)N2C(=O)C1CCC1 (configuration not stated)

entry no.	31	32	33	34	35	36
TDP1 inh	·	·	·	4%	1%	1%
TDP1 cell noCPT	?	9.4µM*	18µM*	-4%	-14%	9.2µM*
DT40 TDP1 CPT	-11%	9.4µM*	18µM*	-9%	-3%	23µM*
miR-21 reporter	·	·	13%	-11%	-3%	16%
uPA generation	-8%	·	-6%	-3%	3%	-4%

37. CC1CC(C)CN(S(=O)(=O)c2ccc3c(c2)CC(C)N3C(=O)C2CCC2)C1 (configuration not stated)
38. CC1CC(C)CN(S(=O)(=O)c2ccc3c(c2)CC(C)N3C(=O)C2CC2)C1 (configuration not stated)
39. CC1CCN(C(=O)NC(=O)c2ccccc2)CC1
40. CCC(=O)c1ccc(OCc2ccc(C(=O)OC)cc2)c(OC)c1
41. CCCCNC(=S)N(C)/N=C/c1ccc(OCc2ccc(C(=O)OC)cc2)c(OC)c1
42. CC1(C(=O)NC2CCc3ccccc32)CCN1CCc1ccccc1 (configuration not stated)
43. CCC(C)NCCOCCOc1ccc(Cl)c(C)c1C (configuration not stated)
44. CCC(C)NCCOCCOc1ccc(Cl)c2ccccc12 (configuration not stated)

entry no.	37	38	39	40	41	42	43	44
TDP1 inh	0%	1%	4%	0%	5%	·	-6%	-4%
TDP1 cell noCPT	15µM*	15µM*	1%	?	15µM*	18µM*	13µM*	18µM*
DT40 TDP1 CPT	23µM*	18µM*	2%	4%	?	16µM*	15µM*	9.2µM*
miR-21 reporter	6%	2%	-3%	-11%	-4%	·	-6%	?
uPA generation	?	8%	3%	-3%	3%	·	3%	-2%
